Results on seven molecules are retold here after US8952128B2, “Somatostatin-dopamine chimeric analogs” (priority 2012, dated 2015).

The chains behind the UniProt entries cited, without tags or fusion partners. Where a name states a change or a piece, a line headed by the entry shows the natural chain unless it says otherwise.
UniProt P30874: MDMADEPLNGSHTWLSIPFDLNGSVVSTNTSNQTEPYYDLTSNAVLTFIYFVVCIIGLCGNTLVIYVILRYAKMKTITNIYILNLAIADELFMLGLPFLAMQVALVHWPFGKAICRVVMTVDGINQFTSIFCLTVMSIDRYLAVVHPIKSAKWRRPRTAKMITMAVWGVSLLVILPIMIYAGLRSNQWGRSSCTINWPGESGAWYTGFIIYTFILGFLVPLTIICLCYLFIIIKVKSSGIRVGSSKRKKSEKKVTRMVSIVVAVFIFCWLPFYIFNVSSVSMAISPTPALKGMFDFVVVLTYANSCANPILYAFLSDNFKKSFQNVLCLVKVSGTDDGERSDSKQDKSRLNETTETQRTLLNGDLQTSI
UniProt P35346: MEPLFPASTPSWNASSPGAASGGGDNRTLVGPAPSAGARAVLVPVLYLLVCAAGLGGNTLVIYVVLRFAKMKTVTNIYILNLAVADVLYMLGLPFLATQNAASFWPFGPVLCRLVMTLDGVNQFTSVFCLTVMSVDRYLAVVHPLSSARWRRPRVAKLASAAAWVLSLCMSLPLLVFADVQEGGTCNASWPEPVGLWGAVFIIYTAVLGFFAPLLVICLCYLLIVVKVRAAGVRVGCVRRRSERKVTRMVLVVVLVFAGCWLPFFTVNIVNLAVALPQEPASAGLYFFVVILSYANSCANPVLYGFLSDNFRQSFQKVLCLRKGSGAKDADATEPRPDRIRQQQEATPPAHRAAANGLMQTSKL
UniProt P32745: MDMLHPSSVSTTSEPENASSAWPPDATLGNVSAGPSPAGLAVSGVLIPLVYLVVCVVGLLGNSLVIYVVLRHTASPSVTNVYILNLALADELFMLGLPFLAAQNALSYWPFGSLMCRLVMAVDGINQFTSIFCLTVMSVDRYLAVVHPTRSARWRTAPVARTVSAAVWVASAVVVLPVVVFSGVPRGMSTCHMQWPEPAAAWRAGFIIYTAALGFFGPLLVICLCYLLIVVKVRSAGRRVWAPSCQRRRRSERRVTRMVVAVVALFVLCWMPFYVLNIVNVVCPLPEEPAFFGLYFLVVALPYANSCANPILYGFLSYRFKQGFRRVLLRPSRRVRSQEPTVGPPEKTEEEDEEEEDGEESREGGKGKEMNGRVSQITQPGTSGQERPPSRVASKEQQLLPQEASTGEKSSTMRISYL
UniProt P30872: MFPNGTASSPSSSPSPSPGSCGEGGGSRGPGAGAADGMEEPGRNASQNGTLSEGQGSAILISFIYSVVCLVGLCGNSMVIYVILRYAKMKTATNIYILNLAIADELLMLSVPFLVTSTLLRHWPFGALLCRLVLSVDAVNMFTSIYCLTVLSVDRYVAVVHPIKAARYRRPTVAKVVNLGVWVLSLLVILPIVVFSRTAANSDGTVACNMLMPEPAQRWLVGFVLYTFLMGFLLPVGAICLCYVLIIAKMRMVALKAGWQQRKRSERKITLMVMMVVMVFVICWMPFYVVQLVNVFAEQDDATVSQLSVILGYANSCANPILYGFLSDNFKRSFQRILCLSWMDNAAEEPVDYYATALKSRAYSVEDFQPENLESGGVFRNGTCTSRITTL
UniProt P31391: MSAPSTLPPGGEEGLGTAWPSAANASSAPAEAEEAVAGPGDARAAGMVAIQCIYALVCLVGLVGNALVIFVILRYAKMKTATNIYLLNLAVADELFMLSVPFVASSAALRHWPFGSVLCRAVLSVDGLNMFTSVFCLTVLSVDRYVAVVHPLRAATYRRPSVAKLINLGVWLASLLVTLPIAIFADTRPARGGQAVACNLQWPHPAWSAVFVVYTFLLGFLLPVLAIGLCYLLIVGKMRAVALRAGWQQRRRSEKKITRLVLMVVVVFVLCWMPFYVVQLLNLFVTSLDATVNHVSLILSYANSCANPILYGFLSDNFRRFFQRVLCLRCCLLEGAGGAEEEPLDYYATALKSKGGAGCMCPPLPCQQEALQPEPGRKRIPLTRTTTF

Assay [1] deals with T1, hDRD2 (Homo sapiens (Human), UniProt P14416). Type of assay: binding. Particulars: CHO-K1 membranes, [3H]-spiperone; read-out: hDRD2 Ki (nM) ± SEM.
Assay [2] concerns the target T2, hSSTR2 (Homo sapiens (Human), UniProt P30874). Description: Somatostatin receptor radioligand binding assay, hSSTR2. The note with it: CHO-K1 membranes, [125I-Tyr]-seglitide; read-out: hSSTR2 Ki (nM) ± SEM.
Assay [3] concerns the target T2, hSSTR2. Put plainly: Intracellular calcium mobilization assay (FLIPR Calcium 4), hSSTR2.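 Note: agonist activity read as intracellular calcium rise in cells expressing human SSTR2, loaded with a calcium-sensitive dye for 60 min at 37 °C, measured by FLIPR.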 Type of assay: cell-based.
For assay [4], the target named is T1, hDRD2. Put plainly: cell-based. It counts as cell-based.
Another assay addresses hSSTR5 (Homo sapiens (Human), UniProt P35346). Description: Somatostatin receptor radioligand binding assay, hSSTR5. Particulars: CHO-K1 membranes, [125I-Tyr]-[DPhe-cyclo(Cys-Tyr-DTrp-Lys-Val-Cys)-Thr-NH2]; read-out: hSSTR5 Ki (nM) ± SEM.
The next assay concerns the target hSSTR3 (Homo sapiens (Human), UniProt P32745). Description: Somatostatin receptor radioligand binding assay, hSSTR3. Particulars: CHO-K1 membranes, [125I-Tyr11]-SRIF-14; read-out: hSSTR3 Ki (nM) ± SEM. The protocol:
(§1) The affinities of a test compound for the human somatostatin receptors were determined by radioligand binding assays in CHO-K1 cells stably transfected with each of the human somatostatin receptor subtypes, hSSTR1-5. The cDNA coding sequences of hSSTR1 (GenBank accession No. NM_001049.1), hSSTR2 (GenBank accession No. XM—012697.1), hSSTR3 (GenBank accession No. XM—009963.1), hSSTR4 (GenBank accession No. NM_001052.1), and hSSTR5 (GenBank accession No. XM—012565.1) were subcloned into the mammalian expression vector pcDNA3.1 (Life Technologies). Clonal cell lines stably expressing each of the somatostatin receptors were obtained by transfection into CHO-K1 cells (ATCC) and subsequently selected with culture media containing 0.8 mg/mL of G418 (Life Technologies).
(§2) Membranes for in vitro receptor binding assays were obtained by the following procedures. CHO-K1 cells expressing one of the somatostatin receptors were homogenized in ice-cold buffer with 10 mM Tris-HCl, 5 mM EDTA, 3 mM EGTA, 1 mM phenylmethylsuphonyl fluoride, pH 7.6, using Polytron PT10-35GT (Kinematica) at 18,000 rpm for 30 seconds and centrifuged at 500×g for 10 minutes. The supernatant containing the plasma membranes was centrifuged at 100,000×g for 30 minutes and the pellet was resuspended in buffer containing 20 mM glycine-glycine, 1 mM MgCl2, 250 mM sucrose, pH 7.2, for storage at −80° C. […]

In another assay the target is hSSTR1 (Homo sapiens (Human), UniProt P30872). Put plainly: Somatostatin receptor radioligand binding assay, hSSTR1. Particulars: CHO-K1 membranes, [125I-Tyr11]-SRIF-14; read-out: hSSTR1 Ki (nM) ± SEM.
The target of a further assay is hSSTR4 (Homo sapiens (Human), UniProt P31391). Description: Somatostatin receptor radioligand binding assay, hSSTR4. The note with it: CHO-K1 membranes, [125I-Tyr11]-SRIF-14; read-out: hSSTR4 Ki (nM) ± SEM. The method, then: as §1, §2
Where [5] appears, read: calcium mobilization, read-out: hSSTR2 EC50 (nM) ± SEM.
Setting [6] is: calcium mobilization, read-out: hDRD2 EC50 (nM) ± SEM.

Like-named read-outs stand apart in the source and are kept apart here.

Regarding `C[C@@H](O)[C@@H]1NC(=O)[C@H](CCCCN)NC(=O)[C@@H](Cc2c[nH]c3ccccc23)NC(=O)[C@H](Cc2ccccc2)NC(=O)[C@H](Cc2ccccc2)NC(=O)[C@H](CCCNC(=N)N)NC(=O)[C@H](NC[C@H](Cc2ccc(O)cc2)NC(=O)CCN(C[C@@H]2C[C@@H]3c4cccc5[nH]cc(c45)C[C@H]3N(C)C2)S(C)(=O)=O)CCCCNC(=O)[C@H](Cc2ccc(F)cc2)NC1=O` [Compound 42, [N-(D-6-methyl-8β-ergolinylmethyl)-N-(methylsulfonyl)]-aminopropionyl-Tyr-psi(CH2NH)-cyclo(DLys-Arg-Phe-Phe-DTrp-Lys-Thr-4FPhe)], the Ki at hDRD2 [1] was determined as 285 nM; at hSSTR2 [2] it was 0.69 nM. For the same molecule, the EC50 at hSSTR2 [3] (setting [5]) stood at 30.7 ± 15 nM; on hDRD2 [4] (setting [6]) it was 65.2 ± 13.7 nM.
`C[C@@H](O)[C@@H]1NC(=O)[C@H](CCCCN)NC(=O)[C@@H](Cc2c[nH]c3ccccc23)NC(=O)[C@H](Cc2ccccc2)NC(=O)[C@H](Cc2ccccc2)NC(=O)[C@H](CCCNC(=N)N)NC(=O)[C@H](NC(=O)CSC[C@@H]2C[C@@H]3c4cccc5[nH]cc(c45)C[C@H]3N(C)C2)CCNC(=O)[C@H](Cc2ccccc2)NC1=O` [Reference Compound A, Dop1-cyclo(DDab-Arg-Phe-Phe-DTrp-Lys-Thr-Phe), reference compound]: the EC50 amounted to 26.5 ± 2.3 nM at hSSTR2 [3] and 401 ± 141 nM on hDRD2 [4].
In the case of `C[C@@H](O)[C@@H]1NC(=O)[C@H](CCCCN)NC(=O)[C@@H](Cc2c[nH]c3ccccc23)NC(=O)[C@H](Cc2ccccc2)NC(=O)[C@H](Cc2ccccc2)NC(=O)[C@H](CCCNC(=N)N)NC(=O)[C@H](NCCC[C@@H]2C[C@@H]3c4cccc5[nH]cc(c45)C[C@H]3N(C)C2)CCCCNC(=O)[C@H](Cc2ccc(F)cc2)NC1=O` [Compound 1, (D-6-methyl-8β-ergolinyl)-propionyl-psi(CH2NH)-cyclo(DLys-Arg-Phe-Phe-DTrp-Lys-Thr-4FPhe)], the Ki on hDRD2 [1] came to 10.8 ± 1.4 nM; at hSSTR2 [2] it was 0.04 ± 0.02 nM. Also, the values for the EC50 on hSSTR2 [3] (setting [5]) and on hDRD2 [4] (setting [6]) were 3.1 nM and 22.5 ± 0.5 nM, respectively.
Consider `C[C@@H](O)[C@@H]1NC(=O)[C@H](CCCCN)NC(=O)[C@@H](Cc2c[nH]c3ccccc23)NC(=O)[C@H](Cc2ccccc2)NC(=O)[C@H](Cc2ccccc2)NC(=O)[C@H](CCCNC(=N)N)NC(=O)[C@H](NC(=O)[C@@H](Cc2ccc(O)cc2)NC(=O)CSC[C@@H]2C[C@@H]3c4cccc5[nH]cc(c45)C[C@H]3N(C)C2)CCCCNC(=O)[C@H](Cc2ccccc2)NC1=O` [Compound 37, Dop1-DTyr-cyclo(DLys-Arg-Phe-Phe-DTrp-Lys-Thr-Phe)], for which the Ki at hDRD2 [1] turned out to be 25.3 ± 2.4 nM; at hSSTR2 [2] it was 1.38 ± 0.36 nM; at hSSTR5 it was 2.45 nM. Moreover, the EC50 at hSSTR2 [3] (setting [5]) is 23.1 ± 4.3 nM; on hDRD2 [4] (setting [6]), 33.4 ± 14.4 nM.
On to `C[C@@H](O)[C@@H]1NC(=O)[C@H](CCCCN)NC(=O)[C@@H](Cc2c[nH]c3ccccc23)NC(=O)[C@H](Cc2ccccc2)NC(=O)[C@H](Cc2ccccc2)NC(=O)[C@H](CCCNC(=N)N)NC(=O)[C@H](NCCSC[C@@H]2C[C@@H]3c4cccc5[nH]cc(c45)C[C@H]3N(C)C2)CCCCNC(=O)[C@H](Cc2ccc(F)cc2)NC1=O` [Compound 6, Dop1-psi(CH2NH)-cyclo(DLys-Arg-Phe-Phe-DTrp-Lys-Thr-4FPhe)], for which the Ki on hDRD2 [1] is 101 ± 17.9 nM; on hSSTR2 [2] it was 0.3 ± 0.06 nM; on hSSTR3, 2.1 ± 0.9 nM; on hSSTR1 it was 32.2 ± 8.1 nM; on hSSTR5, 0.52 ± 0.1 nM; at hSSTR4 it was 61.9 ± 25 nM. The EC50 on hSSTR2 [3] (setting [5]) amounted to 12.7 ± 3.6 nM; on hDRD2 [4] (setting [6]), 33.6 ± 3.7 nM.
With `C[C@@H](O)[C@@H]1NC(=O)[C@H](CCCCN)NC(=O)[C@@H](Cc2c[nH]c3ccccc23)NC(=O)[C@H](Cc2ccncc2)NC(=O)[C@H](Cc2ccccc2)NC(=O)[C@H](CCCNC(=N)N)NC(=O)[C@H](NCCSC[C@@H]2C[C@@H]3c4cccc5[nH]cc(c45)C[C@H]3N(C)C2)CCCCNC(=O)[C@H](Cc2ccc(O)cc2)NC1=O` [Compound 7, Dop1-psi(CH2NH)-cyclo(DLys-Arg-Phe-4Pal-DTrp-Lys-Thr-Tyr)], the Ki at hDRD2 [1] is 34.3 ± 16.8 nM; on hSSTR2 [2] it was 0.08 ± 0.02 nM; at hSSTR3, 13.1 ± 2.8 nM; at hSSTR1, 100 ± 18.5 nM; at hSSTR5, 0.51 ± 0.1 nM; at hSSTR4 it was 10.8 ± 2.8 nM. Moreover, the EC50 on hSSTR2 [3] (setting [5]) was found to be 2.2 ± 0.5 nM; at hDRD2 [4] (setting [6]) it was 5 ± 0.7 nM.
For `C[C@@H](O)[C@@H]1NC(=O)[C@H](CCCCN)NC(=O)[C@@H](Cc2c[nH]c3ccccc23)NC(=O)[C@H](Cc2ccccc2)NC(=O)[C@H](Cc2ccccc2)NC(=O)[C@H](CCCNC(=N)N)NC(=O)[C@H](NC(=O)[C@H](Cc2ccc(O)cc2)NC(=O)CSC[C@@H]2C[C@@H]3c4cccc5[nH]cc(c45)C[C@H]3N(C)C2)CCNC(=O)[C@H](Cc2ccccc2)NC1=O` [Reference Compound B, Dop1-Tyr-cyclo(DDab-Arg-Phe-Phe-DTrp-Lys-Thr-Phe), reference compound], the EC50 on hSSTR2 [3] is 18.8 ± 4.8 nM; at hDRD2 [4], 62.8 ± 9.8 nM.
